In US12558424B2, “T cells having enhanced anti-tumor activity” (The United States of America, as represented by the …, priority 2019, dated 2026):

Assays:
[1] = tested on: murine splenic CD8+ T cells; test: LC-MS metabolomics of intracellular metabolites; assay type: cell-based, mouse
Procedure: (§1) Except where otherwise specified, all experiments were performed with murine splenic CD8+ T cells isolated with STEMCELL Technologies EasySep™ Mouse CD8+ T Cell Isolation Kit (catalog #19853). Following isolation, cells were resuspended at 1×10^6 cells/ml in T cell culture medium: RPMI 1640 medium (Thermo 11875093) containing 10% fetal bovine serum (FBS), 1× Glutamax (Life Technologies #35050-061), 1 mM sodium pyruvate, 0.1% β-mercaptoethanol, and penicillin/streptomycin. Cells were plated in 24-well tissue culture plates precoated with mouse anti-CD3 (2 μg/ml) and cultured with soluble mouse anti-CD28 (2 μg/ml) for 48 h. After incubation, cells were pooled, washed twice in media, and re-plated at 1×10^6 cells/ml. Cells were stimulated without cytokine or with 100 IU/ml human IL-2 or 100 ng/ml mouse IL-21. Unless otherwise specified, cells were stimulated for 48 h before being harvested. Where noted, cells were treated (1 μM) with a novel, pyrazole-based LDH inhibitor (NCI-737, herein denoted as NCI-737) that was developed under the auspices of the NCI Experimental Therapeutics Program 29. NCI-737 was added at the time of anti-CD3+ anti-CD28 treatment and replenished after cells were washed and replated in either IL-2 or IL-21, as indicated.
CD8+ T cells were isolated from 6-week old C57BL/6 mouse spleens (StemCell #19853), activated for 48 h with anti-CD3+anti-CD28, washed, and replated for 48 h in medium alone or medium supplemented with human IL-2 or mouse IL-21. Cells were then washed with media supplemented with dialyzed fetal bovine serum (“FBS”) (Thermo-Fischer #A3382001), replated in RPMI 1640 medium containing 10% dialyzed FBS, 1× Glutamax (ThermoFisher #35050061), 1 mM sodium pyruvate, 0.1% β-mercaptoethanol, and penicillin-streptomycin, and re-stimulated with same cytokine treatment for 5 h. […] Cell extracts were analyzed using a quadrupole-orbitrap mass spectrometer (Q Exactive, Thermo Fisher Scientific, San Jose, CA) coupled to hydrophilic interaction chromatography via electrospray ionization. […] Data were analyzed using EL-MAVEN software. […]

[2] = tested on: mouse CD8+ T cells; test: Seahorse mitochondrial stress test (OCR, ECAR, SRC), mouse CD8+ T cells; assay type: cell-based
Procedure: as §1
(§2) The oxygen consumption rates (OCR) and extracellular acidification rates (ECAR) were recorded using a Seahorse XFe96 Analyzer (Agilent). Cells were washed and resuspended in Agilent XF Assay Medium supplemented with 25 mM glucose, 1 mM sodium pyruvate, and 2 mM L-Glutamine. Cells were plated on Seahorse Assay plates at 0.2×10^6 cells/well and during the assay were exposed to 1 μM oligomycin, 1.5 μM trifluoromethoxy carbonylcyanide phenylhydrazone (“FCCP”), 100 nM rotenone, and 1 μM antimycin A, as indicated.

[3] = tested on: human CD8+ T cells; test: Seahorse mitochondrial stress test (OCR, ECAR, SRC), human CD8+ T cells; assay type: cell-based
Procedure: as §2

[4] = tested on: murine splenic CD8+ T cells; test: RNA-Seq gene expression; assay type: cell-based, mouse; conditions: vs no cytokine
Procedure: as §1, with “Unless otherwise specified, cells were stimulated for 48 h before being harvested. Where noted, cells were treated (1 μM) with a novel, pyrazole-based LDH inhibitor (NCI-737, herein denoted as NCI-737) that was developed under the auspices of the NCI Experimental Therapeutics Program 29. NCI-737 was added at the time of anti-CD3+ anti-CD28 treatment and replenished after cells were washed and replated in either IL-2 or IL-21, as indicated.” left out
Total RNA was extracted using an RNA miniprep kit (Zymo Research), and 500 ng RNA was used for library preparation. […] After quantification by Qubit (Invitrogen), barcoded samples were mixed and sequenced on an Illumina HiSeq3000 platform. Sequenced reads (50 bp, single end) were obtained with the Illumina CASAVA pipeline and mapped to the mouse genome mm10 (GRCm38, December 2011) using Bowtie 2.2.649 and Tophat 2.2.149. Only uniquely mapped reads were retained. Raw counts that fell on exons were calculated and normalized by using RPKM (Reads Per Kilobase per Million mapped reads). […]

[5] = tested on: pmel-1 CD8+ T cells; test: Flow cytometry of pmel-1 CD8+ T cell differentiation (CD44, CD62L, Sca-1); assay type: cell-based, mouse; conditions: pmel-1 CD8+ T cells activated with anti-CD3+anti-CD28
[6] = tested on: B16 melanoma (B16KVP); test: Mouse tumor model and adoptive transfer; assay type: in vivo; conditions: cells cultured with cytokine alone
[7] = tested on: murine splenic CD8+ T cells; test: Electron microscopy of mitochondrial morphology; assay type: cell-based, mouse; conditions: 48 h culture after anti-CD3+anti-CD28 activation
Procedure: as §1, with “indicated. […]” for “indicated.”

[8] = tested on: murine splenic CD8+ T cells; test: Cellular expansion, CFSE dilution and viability; assay type: cell-based, mouse; conditions: 48 h treatment; vs no cytokine
Procedure: as §1, with “Where noted, cells were treated (1 μM) with a novel, pyrazole-based LDH inhibitor (NCI-737, herein denoted as NCI-737) that was developed under the auspices of the NCI Experimental Therapeutics Program 29. NCI-737 was added at the time of anti-CD3+ anti-CD28 treatment and replenished after cells were washed and replated in either IL-2 or IL-21, as indicated.” left out
Live cells were stained in FACS buffer containing 0.5% BSA and 0.02% sodium azide in PBS. […] After staining, cells were washed and analyzed on a BD LSRFortessa™ X-20 cytometer. For glucose uptake experiments, cultured cells were starved for 7 h in glucose-free media, then treated with a fluorescently-labeled glucose derivative (Cayman #600471) for 10 min, and assessed using a flow cytometer. […]

[9] = tested on: murine splenic CD8+ T cells; test: Glucose uptake by flow cytometry (fluorescently-labeled glucose derivative); assay type: cell-based, mouse; conditions: vs cells treated with NC or IL-21
Procedure: Live cells were stained in FACS buffer containing 0.5% BSA and 0.02% sodium azide in PBS. Cells were stained at 4° C. for 30 min in darkness with anti-CD8 (53-6.7, BioLegend), anti-CD62L (MEL-14, BioLegend), anti-CD44 (IM7, BD Pharmingen), anti-Sca-1 (D7, Biolegend), and Live/Dead aqua (Invitrogen). After staining, cells were washed and analyzed on a BD LSRFortessa™ X-20 cytometer. For glucose uptake experiments, cultured cells were starved for 7 h in glucose-free media, then treated with a fluorescently-labeled glucose derivative (Cayman #600471) for 10 min, and assessed using a flow cytometer. All analyses were done using FlowJo software (TreeStar).

[10] = tested on: murine splenic CD8+ T cells; test: Western blotting of LDHA and phosphorylated PDH; assay type: cell-based, mouse
Procedure: After 3 days of stimulation with medium, IL-2, or IL-21, cells were pelleted at 1500 rpm for 5 min, washed with ice cold PBS, resuspended in radioimmunoprecipitation assay buffer, and frozen on dry ice. Frozen lysates were thawed on ice, cell debris was removed by centrifuging at 13,000 rpm for 15 min at 4° C., and supernatant was collected. Protein was quantified using the DCTM Protein Assay Kit (Bio-Rad #5000111) and 20 μg of supernatant protein was loaded into the wells of a NuPAGE™ 4-12% Bis-Tris Gel (Invitrogen #NP0335BOX) and electrophoresed at 100 V in NuPAGE MOPS SDS Running Buffer (Life Technologies #1908733). Proteins were transferred onto a 0.45 μm polyvinylidene difluoride membrane using an XCell II™ Blot Module (Invitrogen #EI9051) run at 30 V for 1 h in NuPAGE Transfer Buffer (Life Technologies #1904537). Following transfer, membranes were blocked by shaking for 1 h at room temperature with 5% non-fat dry milk in TBS. Blots were probed overnight at 4° C. with primary antibodies dissolved in 5% non-fat dry milk in TBS+0.1% Tween 20 (TBSt). The primary antibodies used were as follows: anti-human or anti-mouse recombinant LDHA purified sheep IgG (R & D Systems #AF7304), anti-pyruvate dehydrogenase E1-alpha subunit (phospho S293) rabbit polyclonal antibody (Abcam #ab92696), and anti-β-actin mouse monoclonal antibody clone AC-15 (Sigma #A1978). […]

In the case of “IL-2: cytokine; 100 IU/ml human IL-2 used to culture CD8+ T cells”, the “intracellular glucose (LC-MS)” value ([1]; among NC, IL-2, IL-21) is reported as “lowest intracellular glucose”, the lactate level ([1]; cytokine alone) is reported as “high levels” and the pyruvate level ([1]; cytokine alone) is reported as “high levels”. The “mitochondrial spare respiratory capacity (SRC)” value ([2]; cytokine 48 h) was “minimal”, the “basal oxygen consumption rate (OCR)” value ([2]; cytokine 48 h, IL-2 vs IL-21) was “higher” and the “extracellular acidification rate (ECAR)” value ([2]; cytokine 48 h, IL-2 vs IL-21) was “higher”. The “OCR at time point zero” value ([2]; cytokine stimulation 4 h) was “roughly equal”, the “OCR value at time 0” value ([2]; cytokine stimulation 12 h) was “approximately 250 pmol/min” and the “OCR value at time 0” value ([2]; cytokine stimulation 24 h) was “above 200 pmol/min”. The “OCR value at time 0” value ([2]; cytokine stimulation 48 h) was “above 100 pmol/min”, the “OCR value upon injection with FCCP” value ([2]; rank among IL-2, IL-2+NCI-737, IL-21, IL-21+NCI-737) was “lowest OCR values” and the ECAR ([3]; IL-2 compared to IL-21) was “higher”. For the same substance, the OCR ([3]; IL-2 compared to IL-21) was “higher”, the “OCR value at time 0” value ([3]; rank among no cytokine, IL-21, IL-2) was “highest OCR value” and the “expression of key glycolytic genes (Slc2a1, Pgk1, Pfkm, Ldha)” value [4] was “induced expression of key glycolytic genes”. The “differentiation of CD44hiCD62Llo effector memory cells” value [5] was “more potent than IL-21”, the “antitumor effect of adoptively transferred pmel-1 CD8+ T cells” value [6] was “conferred therapeutic advantage” and the mitochondrial morphology [7] was “large dysmorphic mitochondria with loosely structured cristae”. For the same substance, the “proliferation (fold-expansion, CFSE dilution)” value [8] was “even greater expansion”, the viability [8] was “markedly higher viability” and the glucose uptake capacity [9] was “higher glucose uptake capacity”. The LDHA protein ([10]; IL-2 vs IL-21-treated cells) was “higher LDHA than IL-21-treated cells” and the “inactive, phosphorylated form of PDH” value ([10]; IL-2 vs IL-21 and NC-treated cells) was “higher”.
